Earlier results as cited in patent US11826432B2, “Linkers, conjugates and applications thereof” (priority 2021, dated 2023).

Conditions: patients; cited from earlier work

For Enhertu, the “interstitial lung disease caused” value is given as “more than 10%”.
